Measured values as given in patent publication US20210330599A1, “Nanoparticles for Controlled Release of Anti-Biofilm Agents and Methods of Use” (University of Rochester, priority 2016, published 2021).

Test: Farnesol loading of micelles (turbidity, HPLC)

Which “farnesol concentration within nanoparticles relative to its solubility limit” value does the source give for “poly(dimethylaminoethyl methacrylate)-b-poly(dimethylaminoethyl methacrylate-co-propylacrylic acid-co-butyl methacrylate) [NPC]” here?
The value was roughly 440 times.
